Test: Oxidation stability evaluation: QH residual rate (change in QH ratio by HPLC) after storage
Type: physicochemical
Conditions: storage at 40° C. and 75% RH for 30 days
Method: The weight ratio of the reduced coenzyme Q10 to the total coenzyme Q10 (i.e., reduced coenzyme Q10/(oxidized coenzyme Q10+reduced coenzyme Q10)) is defined as a “QH ratio”. The QH ratio was determined by the following HPLC analysis. For the evaluation of oxidation stability, a rate of the change in the QH ratio at the end of the evaluation from that at the beginning of the evaluation was defined as “QH residual rate”, and the QH residual rate determined by the following formula was used as a measure of oxidation stability.
• Column: SYMMETRY C18 (manufactured by Waters Corporation); 250 mm (in length) and 4.6 mm (in inner diameter) • Mobile phase: C2H5OH:CH3OH=4:3 (v:v) • Detection wavelength: 210 nm • Flow rate: 1 mL/min […]
The reduced coenzyme Q10/nicotinamide co-crystal in an amount of 1 g each was weighed into two 30-ml glass vials (under the operating environment of 28° C. and 50% RH). One of the vials was kept in an open state, the other vial was hermetically sealed with a screw cap (sealed state), these vials were stored under the environment of 40° C. and 75% RH for 30 days, and the residual rate of reduced coenzyme Q10 was evaluated. […]

Substance: reduced coenzyme Q10/nicotinamide co-crystal [compound 2]
- QH residual rate (%) Sealed state (vial hermetically sealed with screw cap): 92.9%
- QH residual rate (%) Open state (vial in open state): 90.9%

— patent US20260199261A1, “SOLID COMPOSITION CONTAINING CO-CRYSTAL OF REDUCED COENZYME Q10” (KANEKA CORPORATION, priority 2023, published 2026)
